Structures can show the parent of a compound that is named as a salt.
System: phospho-ERK1/2 in human melanoma A375 cells
Assay: cells
Settings: A-375, 3 h, read-out: A375 ICW IC50

Cc1nc2cnc3cc(F)c(-c4ccc(Oc5ncccn5)cc4Cl)cc3c2n1[C@H]1CCN(C(=O)COS(=O)(=O)O)C[C@@H]1F [Example 91, 2-((3S,4S)-4-(8-(2-chloro-4-(pyrimidin-2-yloxy)phenyl)-7-fluoro-2-methyl-1H-imidazo[4,5-c]quinolin-1-yl)-3-fluoropiperidin-1-yl)-2-oxoethyl hydrogen sulfate]
IC50: > 10 µM
